Experimental data as given in patent US12507703B2, “Methods, devices and compositions for preserving human milk” (The Trustees of Princeton University, priority 2023, dated 2025).

Test system: lipase
Assay: Lipase/lipolysis assay (EnzChek Lipase Substrate, quenched BODIPY-fatty acid conjugate) on stored human milk; note: test concentration or dose not given here
Details: stored 1 week at −20° C.
[1] = compound added to fresh human milk, thawed at room temperature, RFU <400 considered a hit
[2] = Food Additive Library compound added to fresh human milk, thawed at room temperature, RFU of <400 considered a hit
[3] = Food-Sourced Compound Library compound added to fresh human milk, thawed at room temperature, RFU <400 considered a hit
[4] = Biolog PM2a compound added to fresh human milk, RFU <400 = hit
[5] = Biolog PM5 compound added to fresh human milk, RFU <400 = hit

| SMILES | Lipase (RFU) [1] | Lipase (RFU) [2] | Lipase (RFU) [3] | also measured |
| --- | --- | --- | --- | --- |
| COc1cc(-c2cc(=O)c3c(O)cc(O)cc3o2)ccc1O [Chrysoeriol] | 949.6425 RFU | – | – | – |
| CC(C)CC(=O)NCC(=O)O [N-Isovaleroylglycine] | 940.2255 RFU | – | – | – |
| CC1=CCC(O)(C(C)C)CC1 (stereo not drawn) [Terpinen-4-ol] | – | 904.3535 RFU | – | – |
| Cc1ncc(C[n+]2csc(CCO)c2C)c(N)n1 [Thiamine monochloride] | – | 1054.494 RFU | 929.7058 RFU | – |
| O=C(O)c1ccc(C(=O)O)cc1 [Terephthalic acid] | – | – | 866.3788 RFU | – |
| CCC(O)C(=O)[O-].[Na+] (stereo not drawn) [Sodium 2-hydroxybutanoate] | – | – | 851.898 RFU | – |
| C[C@H](N)C(N)=O [L-Alaninamide] | – | – | – | Lipase (RFU) [4]: 1023.189 RFU |
| C[C@]12CC[C@@H]3c4ccc(O)cc4CC[C@H]3[C@@H]1CC[C@H]2O [Alpha-Estradiol] | 903.9156 RFU | – | – | – |
| CCOC(=O)C=Cc1ccccc1 [Ethyl cinnamate] | – | 954.8666 RFU | – | – |
| CC1(C)S[C@@H]2[C@H](NC(=O)[C@H](N)c3ccccc3)C(=O)N2[C@H]1C(=O)O [Ampicillin] | – | – | 986.5094 RFU | – |
| Cc1cn([C@H]2C[C@H](O)[C@@H](COP(=O)(O)O)O2)c(=O)[nH]c1=O [Thymidine-5′-monophosphate] | – | – | – | Lipase (RFU) (Biolog PM4 compound added to fresh human milk, RFU <400 = hit): 974.1167 RFU |
| O=C(O)C(O)c1ccc(O)cc1 (stereo not drawn) [p-Hydroxymandelic acid] | – | – | 1340.37 RFU | – |
| Cn1c(=O)ccn([C@@H]2O[C@H](CO)[C@@H](O)[C@H]2O)c1=O [Compound 3-Methyluridine, 3-Methyluridine] | 1048.324 RFU | – | – | – |
| CC(C)=CCc1c(-c2ccc(O)cc2O)oc2c3c(cc(O)c2c1=O)OC(C)(C)C=C3 [Morusin] | 883.3222 RFU | – | – | – |
| CSCCC(=O)O [3-(Methylthio)propionic acid] | – | – | 1259.269 RFU | – |
| Cl.Nc1ccn([C@H]2C[C@H](O)[C@@H](CO)O2)c(=O)n1 [2′-Deoxycytidine (hydrochloride)] | 810.1072 RFU | – | – | – |

| SMILES | Lipase (RFU) [1] | Lipase (RFU) [2] | Lipase (RFU) [3] | also measured |
| --- | --- | --- | --- | --- |
| CC12CCC(C1)C(C)(C)C2O (stereo not drawn) [Fenchyl alcohol] | 896.4423 RFU | 1153.434 RFU | – | – |
| NC(=O)c1cccnc1 [Nicotinamide] | – | 948.4821 RFU | 940.3634 RFU | Lipase (RFU) [5]: 1058.118 RFU |
| CC(C)[C@H](N)C(=O)O [L-Valine] | – | 731.7445 RFU | 688.2338 RFU | Lipase (RFU) [4]: 825.5247 RFU; Lipase (RFU) [5]: 1052.532 RFU |
| CCCCC(C)C(=O)O (stereo not drawn) [2-Methylhexanoic acid] | – | 923.3324 RFU | – | – |
| CC(=O)Oc1ccccc1 [Phenyl acetate] | – | 681.5677 RFU | – | – |
| COc1cc(O)c2c(c1)O[C@H](c1ccc(O)cc1)CC2=O [Sakuranetin] | 675.5882 RFU | – | – | – |
| CCc1ccc(C=O)cc1 [Compound 4-Ethylbenzaldehyde, 4-Ethylbenzaldehyde] | 703.4998 RFU | 1140.945 RFU | – | – |
| c1ccc(SSc2ccccc2)cc1 [Diphenyl disulfide] | – | 815.9417 RFU | – | – |
| CC(C)=CCC[C@](C)(O)[C@@H]1CC=C(C)CC1 [alpha-Bisabolol] | – | 653.6185 RFU | – | – |
| O=C(O)c1cc(=O)c2ccccc2[nH]1 [Kynurenic acid] | – | – | 718.2388 RFU | – |
| O=c1ccoc2cc(O)cc(O)c12 [5,7-Dihydroxychromone] | – | – | 1093.907 RFU | – |
| CC=Cc1ccc(OC(C)=O)c(OC)c1 [Isoeugenol acetate] | – | 756.3358 RFU | – | – |
| Cc1cn([C@H]2C[C@H](O)[C@@H](CO)O2)c(=O)nc1N [5-Methyl-2′-deoxycytidine] | – | – | 961.9903 RFU | – |
| O=C(O)CCc1ccccc1 [Hydrocinnamic acid] | 949.1673 RFU | 919.1729 RFU | – | – |
| Cl.NCCCCNCCCN [Spermidine (hydrochloride)] | 1065.533 RFU | – | – | – |
| CCCCCCCCCCCO [Compound 1-Undecanol, 1-Undecanol] | – | 1096.918 RFU | 1074.886 RFU | – |
